Measurements reported in patent US11034717B2, “Farnesoid X receptor modulators” (Intercept Pharmaceuticals, Inc., priority 2015, dated 2021).

The chains behind the UniProt entries cited, without tags or fusion partners. Residues count along the entry.
UniProt Q96RI1, 262-486: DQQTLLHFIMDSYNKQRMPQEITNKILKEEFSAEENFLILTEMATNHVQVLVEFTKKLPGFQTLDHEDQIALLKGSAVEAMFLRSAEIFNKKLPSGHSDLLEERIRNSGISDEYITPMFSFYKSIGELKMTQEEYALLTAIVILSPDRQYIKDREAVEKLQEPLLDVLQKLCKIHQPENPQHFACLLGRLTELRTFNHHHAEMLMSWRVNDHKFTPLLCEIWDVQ

What was measured:
[1] = Critical micellar concentration; type: physicochemical; conditions: determined in […] NaCl water solution
Procedure: (§1) Physiochemical properties of a compound of the invention such as water solubility, critical micellar concentration, surface tension, and LogPA were determined using methods known in the art.

[2] = 1-octanol-water partition coefficient of ionized species; type: physicochemical
Procedure: as §1

HepG2 cells = conditions: read-out: ATP Content EC50; Table 5A; from Rizzo et al., Mol. Pharm. 2010, 78, 617-630; cited from earlier work
Human FXR = Human FXR (Homo sapiens (Human), UniProt Q96RI1); assay: AlphaScreen FXR / SRC-1 coactivator recruitment assay; type: biochemical; conditions: Table 1; Ref CDCA

Molecule | CMC: Critical Micellar Concentration [1] [mM] | LogPA−: 1-octanol-water partition coefficient as ionized species [2] | EC50 (HepG2 cells) [µM] | EC50 (Human FXR) [µM]
CC[C@H]1[C@@H](O)C2C3CC[C@H]([C@H](C)CCC(=O)O)[C@@]3(C)C[C@H](O)C2[C@@]2(C)CC[C@@H](O)C[C@@H]12 (some centres unmarked) [Compound L1, reference compound] | 15.8 | – | – | –
6α-ethyl-3α,7α,23-trihydroxy-24-nor-5β-cholan-23-sulphate sodium salt [Compound B] | – | 2.0 | 800 | 0.03
CC[C@H]1[C@@H](O)[C@@H]2[C@H](CC[C@]3(C)[C@@H]([C@H](C)CCC(=O)O)CC[C@@H]23)[C@@]2(C)CC[C@@H](O)C[C@@H]12 [Compound A, 6α-ethyl-3α,7α-dihydroxy-5β-cholan-24-oic acid] | – | – | 230 | –
